For the test, the system named is AP2M1 MU. The format is binding, human.

QVVSDIDYVPLKSATA V9R (QVVSDIDYRPLKSATA): the “PSSM value of the substitution (DMS by phage display)” value (“PSSM value … (DMS by phage display)” for short) amounted to 0.

Take QVVSDIDYVPLKSATA V9S (QVVSDIDYSPLKSATA): the “PSSM value … (DMS by phage display)” value came to 0.

As to QVVSDIDYVPLKSATA V9T (QVVSDIDYTPLKSATA), the “PSSM value … (DMS by phage display)” value was determined as 0.

For the substance QVVSDIDYVPLKSATA V9V, the “PSSM value … (DMS by phage display)” value is on record as 0.1095.

On to QVVSDIDYVPLKSATA V9W (QVVSDIDYWPLKSATA), for which the “PSSM value … (DMS by phage display)” value is recorded as 0.

In the case of QVVSDIDYVPLKSATA V9Y (QVVSDIDYYPLKSATA), the “PSSM value … (DMS by phage display)” value is listed as 0.

Take QVVSDIDYVPLKSATA Y8A (QVVSDIDAVPLKSATA): the “PSSM value … (DMS by phage display)” value was found to be 0.

As to QVVSDIDYVPLKSATA Y8D (QVVSDIDDVPLKSATA), the “PSSM value … (DMS by phage display)” value came out at 0.

As for QVVSDIDYVPLKSATA Y8E (QVVSDIDEVPLKSATA), the “PSSM value … (DMS by phage display)” value is given as 0.

Turning to QVVSDIDYVPLKSATA Y8F (QVVSDIDFVPLKSATA), the “PSSM value … (DMS by phage display)” value is 0.

On to QVVSDIDYVPLKSATA Y8G (QVVSDIDGVPLKSATA), for which the “PSSM value … (DMS by phage display)” value is on record as 0.

QVVSDIDYVPLKSATA Y8H (QVVSDIDHVPLKSATA): the “PSSM value … (DMS by phage display)” value is 0.

As to QVVSDIDYVPLKSATA Y8I (QVVSDIDIVPLKSATA), the “PSSM value … (DMS by phage display)” value came to 0.

As for QVVSDIDYVPLKSATA Y8K (QVVSDIDKVPLKSATA), the “PSSM value … (DMS by phage display)” value is 0.

On to QVVSDIDYVPLKSATA Y8L (QVVSDIDLVPLKSATA), for which the “PSSM value … (DMS by phage display)” value was found to be 0.

Consider QVVSDIDYVPLKSATA Y8M (QVVSDIDMVPLKSATA), for which the “PSSM value … (DMS by phage display)” value is reported as 0.

With QVVSDIDYVPLKSATA Y8N (QVVSDIDNVPLKSATA), the “PSSM value … (DMS by phage display)” value amounted to 0.

Turning to QVVSDIDYVPLKSATA Y8P (QVVSDIDPVPLKSATA), the “PSSM value … (DMS by phage display)” value is recorded as 0.

For QVVSDIDYVPLKSATA Y8Q (QVVSDIDQVPLKSATA), the “PSSM value … (DMS by phage display)” value is given as 0.

Regarding QVVSDIDYVPLKSATA Y8R (QVVSDIDRVPLKSATA), the “PSSM value … (DMS by phage display)” value is 0.

On to QVVSDIDYVPLKSATA Y8S (QVVSDIDSVPLKSATA), for which the “PSSM value … (DMS by phage display)” value turned out to be 0.

For QVVSDIDYVPLKSATA Y8T (QVVSDIDTVPLKSATA), the “PSSM value … (DMS by phage display)” value is listed as 0.

With QVVSDIDYVPLKSATA Y8V (QVVSDIDVVPLKSATA), the “PSSM value … (DMS by phage display)” value is listed as 0.

With QVVSDIDYVPLKSATA Y8W (QVVSDIDWVPLKSATA), the “PSSM value … (DMS by phage display)” value was 0.

On to QVVSDIDYVPLKSATA Y8Y, for which the “PSSM value … (DMS by phage display)” value was determined as 1.

As for VSDIDYVPLKSATA(averaged) A12A, the “PSSM value of the substitution, averaged over the two overlapping peptides” value (from here on “PSSM value … over the two overlapping peptides”) is reported as 0.005606.

Turning to “VSDIDYVPLKSATA(averaged) A12D (VSDIDYVPLKSDTA)”, the “PSSM value … over the two overlapping peptides” value amounted to 0.0157.

On to “VSDIDYVPLKSATA(averaged) A12E (VSDIDYVPLKSETA)”, for which the “PSSM value … over the two overlapping peptides” value worked out at 0.1118.

Consider “VSDIDYVPLKSATA(averaged) A12F (VSDIDYVPLKSFTA)”, for which the “PSSM value … over the two overlapping peptides” value was found to be 0.01804.

Regarding “VSDIDYVPLKSATA(averaged) A12G (VSDIDYVPLKSGTA)”, the “PSSM value … over the two overlapping peptides” value was 0.

For the substance “VSDIDYVPLKSATA(averaged) A12H (VSDIDYVPLKSHTA)”, the “PSSM value … over the two overlapping peptides” value came to 0.001905.

Consider “VSDIDYVPLKSATA(averaged) A12I (VSDIDYVPLKSITA)”, for which the “PSSM value … over the two overlapping peptides” value came out at 0.2462.

For the substance “VSDIDYVPLKSATA(averaged) A12K (VSDIDYVPLKSKTA)”, the “PSSM value … over the two overlapping peptides” value is listed as 0.

As for “VSDIDYVPLKSATA(averaged) A12L (VSDIDYVPLKSLTA)”, the “PSSM value … over the two overlapping peptides” value was found to be 0.1234.

Turning to “VSDIDYVPLKSATA(averaged) A12M (VSDIDYVPLKSMTA)”, the “PSSM value … over the two overlapping peptides” value is given as 0.04037.

As to “VSDIDYVPLKSATA(averaged) A12N (VSDIDYVPLKSNTA)”, the “PSSM value … over the two overlapping peptides” value is 0.1766.

As for “VSDIDYVPLKSATA(averaged) A12P (VSDIDYVPLKSPTA)”, the “PSSM value … over the two overlapping peptides” value turned out to be 0.0004826.

With “VSDIDYVPLKSATA(averaged) A12Q (VSDIDYVPLKSQTA)”, the “PSSM value … over the two overlapping peptides” value is given as 0.

For “VSDIDYVPLKSATA(averaged) A12R (VSDIDYVPLKSRTA)”, the “PSSM value … over the two overlapping peptides” value is reported as 0.

Take “VSDIDYVPLKSATA(averaged) A12S (VSDIDYVPLKSSTA)”: the “PSSM value … over the two overlapping peptides” value turned out to be 0.1444.

Take “VSDIDYVPLKSATA(averaged) A12T (VSDIDYVPLKSTTA)”: the “PSSM value … over the two overlapping peptides” value amounted to 0.05432.

As for “VSDIDYVPLKSATA(averaged) A12V (VSDIDYVPLKSVTA)”, the “PSSM value … over the two overlapping peptides” value turned out to be 0.001806.

As for “VSDIDYVPLKSATA(averaged) A12W (VSDIDYVPLKSWTA)”, the “PSSM value … over the two overlapping peptides” value came to 0.05944.

For the substance “VSDIDYVPLKSATA(averaged) A12Y (VSDIDYVPLKSYTA)”, the “PSSM value … over the two overlapping peptides” value stood at 0.

As to VSDIDYVPLKSATA(averaged) A14A, the “PSSM value … over the two overlapping peptides” value was determined as 0.003685.

Consider “VSDIDYVPLKSATA(averaged) A14D (VSDIDYVPLKSATD)”, for which the “PSSM value … over the two overlapping peptides” value is 0.006127.

In the case of “VSDIDYVPLKSATA(averaged) A14E (VSDIDYVPLKSATE)”, the “PSSM value … over the two overlapping peptides” value amounted to 0.

“VSDIDYVPLKSATA(averaged) A14F (VSDIDYVPLKSATF)”: the “PSSM value … over the two overlapping peptides” value was determined as 0.01452.

In the case of “VSDIDYVPLKSATA(averaged) A14G (VSDIDYVPLKSATG)”, the “PSSM value … over the two overlapping peptides” value was determined as 0.02521.

On to “VSDIDYVPLKSATA(averaged) A14H (VSDIDYVPLKSATH)”, for which the “PSSM value … over the two overlapping peptides” value is reported as 0.003462.

For “VSDIDYVPLKSATA(averaged) A14I (VSDIDYVPLKSATI)”, the “PSSM value … over the two overlapping peptides” value amounted to 0.000644.

Regarding “VSDIDYVPLKSATA(averaged) A14K (VSDIDYVPLKSATK)”, the “PSSM value … over the two overlapping peptides” value is listed as 0.

Take “VSDIDYVPLKSATA(averaged) A14L (VSDIDYVPLKSATL)”: the “PSSM value … over the two overlapping peptides” value is reported as 0.01346.

Take “VSDIDYVPLKSATA(averaged) A14M (VSDIDYVPLKSATM)”: the “PSSM value … over the two overlapping peptides” value turned out to be 0.

For the substance “VSDIDYVPLKSATA(averaged) A14N (VSDIDYVPLKSATN)”, the “PSSM value … over the two overlapping peptides” value was 0.001075.

On to “VSDIDYVPLKSATA(averaged) A14P (VSDIDYVPLKSATP)”, for which the “PSSM value … over the two overlapping peptides” value came to 0.001907.

As to “VSDIDYVPLKSATA(averaged) A14Q (VSDIDYVPLKSATQ)”, the “PSSM value … over the two overlapping peptides” value was 0.444.

On to “VSDIDYVPLKSATA(averaged) A14R (VSDIDYVPLKSATR)”, for which the “PSSM value … over the two overlapping peptides” value was determined as 0.1311.

On to “VSDIDYVPLKSATA(averaged) A14S (VSDIDYVPLKSATS)”, for which the “PSSM value … over the two overlapping peptides” value came out at 0.005066.

Take “VSDIDYVPLKSATA(averaged) A14T (VSDIDYVPLKSATT)”: the “PSSM value … over the two overlapping peptides” value was determined as 0.3301.

As for “VSDIDYVPLKSATA(averaged) A14V (VSDIDYVPLKSATV)”, the “PSSM value … over the two overlapping peptides” value is 0.01963.

For the substance “VSDIDYVPLKSATA(averaged) A14W (VSDIDYVPLKSATW)”, the “PSSM value … over the two overlapping peptides” value was 0.

For the substance “VSDIDYVPLKSATA(averaged) A14Y (VSDIDYVPLKSATY)”, the “PSSM value … over the two overlapping peptides” value is 5.157e-5.

As to “VSDIDYVPLKSATA(averaged) D3A (VSAIDYVPLKSATA)”, the “PSSM value … over the two overlapping peptides” value turned out to be 0.01881.

As to VSDIDYVPLKSATA(averaged) D3D, the “PSSM value … over the two overlapping peptides” value is reported as 0.04227.

As for “VSDIDYVPLKSATA(averaged) D3E (VSEIDYVPLKSATA)”, the “PSSM value … over the two overlapping peptides” value turned out to be 0.0155.

In the case of “VSDIDYVPLKSATA(averaged) D3F (VSFIDYVPLKSATA)”, the “PSSM value … over the two overlapping peptides” value turned out to be 0.07115.

Take “VSDIDYVPLKSATA(averaged) D3G (VSGIDYVPLKSATA)”: the “PSSM value … over the two overlapping peptides” value is given as 0.003884.

Take “VSDIDYVPLKSATA(averaged) D3H (VSHIDYVPLKSATA)”: the “PSSM value … over the two overlapping peptides” value is listed as 0.

As to “VSDIDYVPLKSATA(averaged) D3I (VSIIDYVPLKSATA)”, the “PSSM value … over the two overlapping peptides” value was 0.

For the substance “VSDIDYVPLKSATA(averaged) D3K (VSKIDYVPLKSATA)”, the “PSSM value … over the two overlapping peptides” value amounted to 0.02954.

“VSDIDYVPLKSATA(averaged) D3L (VSLIDYVPLKSATA)”: the “PSSM value … over the two overlapping peptides” value is 0.07101.

For the substance “VSDIDYVPLKSATA(averaged) D3M (VSMIDYVPLKSATA)”, the “PSSM value … over the two overlapping peptides” value was 0.004661.

Take “VSDIDYVPLKSATA(averaged) D3N (VSNIDYVPLKSATA)”: the “PSSM value … over the two overlapping peptides” value came to 0.09903.

“VSDIDYVPLKSATA(averaged) D3P (VSPIDYVPLKSATA)”: the “PSSM value … over the two overlapping peptides” value is recorded as 0.4228.

Consider “VSDIDYVPLKSATA(averaged) D3Q (VSQIDYVPLKSATA)”, for which the “PSSM value … over the two overlapping peptides” value is 0.001253.

“VSDIDYVPLKSATA(averaged) D3R (VSRIDYVPLKSATA)”: the “PSSM value … over the two overlapping peptides” value is listed as 0.

Regarding “VSDIDYVPLKSATA(averaged) D3S (VSSIDYVPLKSATA)”, the “PSSM value … over the two overlapping peptides” value came to 0.

The values above are taken from publication PMC12102759 (Protein Science : A Publication of the Protein Society, 2025).
